From US20080159958A1, “DETERMINATION OF HISTAMINE-3 BIOACTIVITY” (Abbott Laboratories, priority 2006, published 2008)

Amino acid sequences for entries named in this document (tags omitted). A change or cut given only in a name is not applied to a line headed by its entry.
UniProt Q9QYN8: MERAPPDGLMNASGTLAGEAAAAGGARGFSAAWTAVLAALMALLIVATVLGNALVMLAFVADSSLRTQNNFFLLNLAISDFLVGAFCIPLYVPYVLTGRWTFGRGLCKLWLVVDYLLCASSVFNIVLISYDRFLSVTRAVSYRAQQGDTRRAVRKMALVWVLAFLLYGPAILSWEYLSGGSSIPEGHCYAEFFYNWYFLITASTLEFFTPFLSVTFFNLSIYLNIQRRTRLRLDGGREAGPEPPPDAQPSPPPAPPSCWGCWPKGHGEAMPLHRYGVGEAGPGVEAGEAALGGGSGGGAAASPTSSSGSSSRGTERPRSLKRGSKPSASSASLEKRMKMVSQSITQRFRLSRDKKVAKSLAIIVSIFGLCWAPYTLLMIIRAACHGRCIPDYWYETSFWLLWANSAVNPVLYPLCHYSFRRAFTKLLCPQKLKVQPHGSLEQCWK

Biological target: rat histamine H3 receptor (Rattus norvegicus, UniProt Q9QYN8)
Test: Competition binding assay with [3H]-N-α-methylhistamine, rat H3 receptor
Settings: read-out: rat H3 Ki; cloned rat H3 receptor, C6 or HEK293 cell membranes

Ki: 0.45 nM
SMILES: C[C@@H]1CCCN1CCc1cc2cc(-c3ccc(C#N)cc3)ccc2o1 [Compound 2, 4-(2-[2-((R)-2-methyl-pyrrolidin-1-yl)-ethyl]-benzofuran-5-yl}-benzonitrile]
